# Source: patent publication US20120114665A1
# Experiments:
# [1] = biological target: human RANKL (receptor activator of NF-κB ligand) (human) (UniProt O14788); assay: cell-based or functional assay
# [2] = biological target: human RANKL (receptor activator of NF-κB ligand) (human) (UniProt O14788); assay: SPR (BIACORE), purified antibody, 25°C
# [3] = biological target: human RANKL (receptor activator of NF-κB ligand) (human) (UniProt O14788); assay: SPR (BIACORE), purified antibody, 37°C
# [4] = biological target: penta-his-tagged hRANKL (human); assay: competition ELISA: 150 pM his-hRANKL pre-mixed with antibody, free RANKL detected on hRANK-hFc plate
# [5] = biological target: penta-his-tagged monkey (Macaca fascicularis) RANKL (Macaca fascicularis); assay: competition ELISA: 150 pM his-mfRANKL pre-mixed with antibody, free RANKL detected on hRANK-hFc plate
# [6] = biological target: human RANKL (receptor activator of NF-κB ligand) (human) (UniProt O14788); assay: SPR (BIACORE), purified antibody, 25°C; 25° C.
substance,measurement,setting,value
H4H001G (antibody),"IC50, hRANKL-inducible luciferase activity in HK293/RANK/NFκB-luc-eGFP cells",[1],0.111 nM
same,Kd,[2],0.228 nM
same,Kd,[3],0.0495 nM
same,IC50,[4],0.14 nM
same,IC50,[5],0.825 nM
H4H001P (antibody),"IC50, hRANKL-inducible luciferase activity in HK293/RANK/NFκB-luc-eGFP cells",[1],0.106 nM
same,Kd,[3],0.041 nM
same,Kd,[6],0.186 nM
same,IC50,[4],0.105 nM
same,IC50,[5],0.71 nM
H4H003P (antibody),"IC50, hRANKL-inducible luciferase activity in HK293/RANK/NFκB-luc-eGFP cells",[1],0.181 nM
same,Kd,[2],0.251 nM
same,Kd,[3],0.017 nM
same,IC50,[4],0.085 nM
same,IC50,[5],0.9 nM
H4H004P (antibody),"IC50, hRANKL-inducible luciferase activity in HK293/RANK/NFκB-luc-eGFP cells",[1],0.143 nM
same,Kd,[2],0.199 nM
same,Kd,[3],0.0149 nM
same,IC50,[4],0.155 nM
same,IC50,[5],1.27 nM
